Experimental data: US8227452B2, “Use of a steroid prodrug for the treatment of disease of the posterior segment of the eye” (Novagali Pharma SA, priority 2006, dated 2012)

Assay: Intraocular pharmacokinetics of dexamethasone palmitate and dexamethasone following intravitreal administration
Description: Analytes and internal standard (roxithromycine) were extracted from the tissues using acetonitrile and separated by reverse phase liquid chromatography with a C8 column and a gradient mobile phase. […] The unweighed linear model was applied.

[1] = Day 1 after single intravitreal injection of 100 μL 0.8% dexamethasone palmitate emulsion, rabbits
[2] = Day 7 after single intravitreal injection of 100 μL 0.8% dexamethasone palmitate emulsion, rabbits
[3] = Day 14 after single intravitreal injection of 100 μL 0.8% dexamethasone palmitate emulsion, rabbits
[4] = Day 28 after single intravitreal injection of 100 μL 0.8% dexamethasone palmitate emulsion, rabbits
[5] = Day 60 after single intravitreal injection of 100 μL 0.8% dexamethasone palmitate emulsion, rabbits

## dexamethasone palmitate [DP]
2 months following IVT injection of 800 μg of prodrug
  Prodrug remaining in retina and choroid: considerable amounts
[1]
  Concentration in choroid, mean: 191 nmol/g
  Concentration in retina, mean: 106 nmol/g
[2]
  Concentration in choroid, mean: 103 nmol/g
  Concentration in retina, mean: 93 nmol/g
[3]
  Concentration in choroid, mean: 22 nmol/g
  Concentration in retina, mean: 136 nmol/g
[4]
  Concentration in choroid, mean: 143 nmol/g
  Concentration in retina, mean: 146 nmol/g
[5]
  Concentration in aqueous humor, mean: 0 nmol/g
  Concentration in choroid, mean: 52 nmol/g
  Concentration in retina, mean: 55 nmol/g
intraocular, more especially intravitreal, injections
  Release of active drug after intraocular (intravitreal) injection of the prodrug: in-situ release of dexamethasone
